Assay [1] concerns Rac. The assay can be described thus: Rac activator-induced membrane ruffling (actin reorganization) in 3T3 fibroblasts. It is filed as cell-based. The settings on record: 3T3 cells, compound added 1 h before Rac activation. Here is the method:
(§1) FIGS. 1 to 3 relate to the inhibition of the Rac-induced cell functions by compound (2) (or A4.1). […] 3T3 cells were incubated in serum-free growth medium, either alone, or supplemented with (2) or NSC23766 at indicated concentration 1 h before Rac activation. Ruffles are indicated by arrows (left panel). Percentages of cells with ruffles were quantified (right panel). Results shown are representative of 3 independent experiments. […] 3T3 cells were incubated or not with (2) or NSC23766. Left panel, representative records with arrows indicating the cell location at different times. Right panel, quantification of cell speed in each experimental conditions. Results shown are representative of 2 independent experiments. […] Upper panel, representative kinetics of fibroblast adhesion pre-treated or not with 10 μm (2) or NSC23766. Lower panel, quantification of cell adhesion. Results shown are representative of 3 independent experiments.
cDNA coding for constitutive active Rac1 (Rac^V12-RFP) were transfected in NIH3T3 with jetPEI (Polyplus transfection) according to the manufacturer's instructions. […] After staining, images were captured by a fluorescence microscope (Nikon). The actin cytoskeleton organization was analyzed to observe Rac1-dependent ruffle formation.

Assay [2] relates to 3T3 cells. The assay can be described thus: Unidirectional cell migration (cell speed). It is filed as cell-based. How it is done: as §1
Cells (1000/well) were seeded in a 96 well plate with […] fibronectin stripes (CytooPlates Motility, CYTOO) in medium with 1% SVF and allowed to spread for 4 hours before capturing time-lapse images for 24 hours (image/10 minutes) on a Widefield Leica DMI 6000B drove with Metamorph software. Cells speed was measured with ImageJ software.

The structures appear in SMILES notation.

Consider `CCN(CC)CCCC(C)Nc1nc(C)cc(Nc2ccc3nc(C)cc(N)c3c2)n1` (centres unmarked) [NSC23766, reference compound], for which the “Efficiency of Rac activator to induce ruffle / actin reorganization” value in assay [1] is listed as “strongly decreased”. The “Cell migration (cell speed)” value in assay [2] is “slow down”.
